Measured affinities in a library of Ab-14 light chain variants

Target: peptide PDVDLGDISGINAS, taken from heptad repeat 2 (HR2) of SARS-CoV-2 spike.

Parent scFv Ab-14: VH joined to VL by a (GGGGS)3 linker. Changes lie in the light chain CDRs alone.
VH: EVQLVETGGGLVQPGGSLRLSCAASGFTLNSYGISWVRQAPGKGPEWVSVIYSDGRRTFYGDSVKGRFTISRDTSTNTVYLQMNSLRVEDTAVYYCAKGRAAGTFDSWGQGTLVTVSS
VL: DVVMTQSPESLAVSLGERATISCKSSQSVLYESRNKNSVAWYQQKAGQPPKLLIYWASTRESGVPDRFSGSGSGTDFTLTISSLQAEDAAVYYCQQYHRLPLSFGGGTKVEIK

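Phage display of a naive human antibody library on the peptide gave the parent. These sequences belong to a second round, designed from the earlier measurements on random variants of the parent. Group labels follow the data file (Ctrl: baseline library sampled from a position-specific scoring matrix, with some repeated check sequences; Rand: our label for a block that the file lists under HC and that is probably the random mutants of the ten best first-round binders; GP: Gaussian process model; HC: hill climbing; Gen: genetic algorithm; Gibbs: Gibbs sampling; a sequence that several methods proposed may carry one label only). In AlphaSeq, yeast of one mating type display the scFv and yeast of the other type display the target. The frequency of each diploid, read from paired DNA barcodes, reflects how well the two displayed proteins bind. The ratio of observed to expected reads was calibrated, replicate by replicate, on BCL2-family standards whose Kd was known from biolayer interferometry. Each pool was mated in six replicate cultures.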

Variants are written as CDR1, CDR2 and CDR3 of the light chain (limits as in the source). Parent: KSSQSVLYESRNKNSVA, WASTRES, QQYHRLPLS. This list holds designs with at most six substitutions. Values are apparent Kd, the geometric mean of the replicates that gave a signal; lower means stronger binding. A pair that was not seen in any replicate is written "nd"; this usually means weak binding, but a binder can also be missed. The parent sequence was in this pool as ten entries: three were never detected, three once, and four in most replicates, with averages from 2.2 nM to 240 nM. Background: pairings of all light chain designs with three empty control strains gave a value in 4% of cases (median 430 nM, 5th percentile 38 nM). Values in that range, when seen in few replicates, are hard to tell from nonspecific mating. In the paper, a design with two or fewer of six values counts as a poor binder. A sequence measured in both rounds can read differently, since the two assays cover different ranges.

For KMLQSVLYESRNKNSVA / HASTRED / QQYHQLPLS [GP_HC], the assay gave 730 pM (6 of 6 replicates). The variant KLSQSMLYESRNSNSVA / NASTRMS / QQYHRLPLS [GP_Gen] gave 1.3 nM (6 of 6 replicates). The variant KLGQGVLYESRNKNSVA / GASTRES / QQYHRLPLH [GP_HC] gave 770 pM (6 of 6 replicates). The variant KMSQSVLYESRNFNSVA / WASTRES / QQYHRLPLS [Ctrl] gave 17 nM (4 of 6 replicates). The variant KLSQSVLYESRNKNSVA / GASTRES / QQYHRLPLQ [GP_Gen] showed 410 pM (6 of 6 replicates). For KSPQSHDYGSRNKNSVA / EASERES / QQYHRLPLS [GP_Gibbs], the assay gave 1.6 nM (6 of 6 replicates). With KLPQSTLYESRNKNSVA / DASTRES / QQYHRLPLS [GP_Gen] the result was 390 pM (6 of 6 replicates).

With KSSQSVGYESRNKNQVA / WASTRES / QQYARLPLS [Ctrl] the result was 47 nM (6 of 6 replicates). For KLQQSVLYESRNKNSVA / NASTREV / QQYHRLPLS [GP_Gen], the assay gave 330 pM (6 of 6 replicates). The variant KSSQHVLYENRNKNSVA / WASTRFS / QQYHRLPLS [Ctrl] showed 62 nM (1 of 6 replicates). The variant KSSQSDLYESRNKNSHA / QASTRES / QQYHRLPLS [Ctrl] gave 13 nM (4 of 6 replicates). For KLSQSVLYEERNKNSVA / NASTRES / QQYHRLPLS [GP_Gen], the assay gave 410 pM (6 of 6 replicates). The variant KSDQSHLYGSRNKNSVA / NASERES / QQYHRLPLS [GP_Gibbs] gave 1.2 nM (6 of 6 replicates). For KSSQSVLYESWNKNSVA / WASTREK / QQYHRLPLS [Ctrl], the assay gave 980 nM (6 of 6 replicates).

The variant KSSSSYLYESMNKNSVA / NGSTRES / QQYHRLPLS [GP_HC] gave 1.5 nM (6 of 6 replicates). The variant KFPQSVLYESRNKNSVA / NASTRES / QQYHRLPLS [GP_Gen] showed 2.0 nM (6 of 6 replicates). The variant KSSQSQLYESRNKNSVA / FASTRES / QQYHRLPLS [Ctrl] gave 56 nM (4 of 6 replicates). The variant KSSQSVLPESRNNNAVA / WASTRES / QQYHRLPSS [Ctrl] showed 320 nM (1 of 6 replicates). The variant KSHDAVLYESRNKNSVA / WASTRES / QQYHRLPLS [Ctrl] showed 23 nM (6 of 6 replicates). For KSSISYLYGSRNKNSVA / AASTRES / QQYHRLPLS [GP_HC], the assay gave 2.8 nM (6 of 6 replicates). The variant KFSQSELYESRNKNSVA / NASQRMS / QQYHRLPLS [GP_Gen] showed 7.9 nM (2 of 6 replicates).

The variant KFSQSVLYESRNKNSVA / HASTRES / QQYHRLPLS [GP_Gen] showed 1.2 nM (6 of 6 replicates). For LSSISYLYESLNKNSVA / EASTRES / QQYHRLPLS [GP_HC], the assay gave 2.8 nM (6 of 6 replicates). With KLSQSYLYESRVKNSVA / NASTRES / QQYHRLPLS [GP_Gen] the result was 3.4 nM (6 of 6 replicates). The variant KMSQSKLYESRNKNSVA / WASTRES / QQVHWYPLS [Ctrl] showed nd (0 of 6 replicates). With KLSQSVLMEHRNKNSVA / DASLRES / QQYHRLPLS [GP_HC] the result was 1.7 nM (6 of 6 replicates). With HFSPSVLYESRNKNNVA / NASTRES / QQYHRLPLS [GP_HC] the result was 1.8 nM (6 of 6 replicates). The variant KLSQSFLYESRNKNSVA / EASTRES / QQYHRLPLS [GP_Gen] gave 350 pM (6 of 6 replicates).

The variant KLVNSTLYESRQKNSVA / TASTRES / QQYHRLPLS [GP_HC] gave 16 nM (6 of 6 replicates). The variant KLRQSTLYESRNKNSWA / WASTRES / QWYHRLPLS [Rand] gave nd (0 of 6 replicates). The variant KSSQSVLYESYDGNSVA / WASTRES / QLYHRLPLS [Ctrl] showed nd (0 of 6 replicates). For KLRMSTLYESRNKNSVA / MASTRES / QQYHRLPLS [GP_HC], the assay gave 3.1 nM (6 of 6 replicates).

From the list, the first 3 with no signal in any replicate:

CDR-L1,CDR-L2,CDR-L3,group,apparent Kd,seen in
KMSQSKLYESRNKNSVA,WASTRES,QQVHWYPLS,Ctrl,nd,0 of 6
KLRQSTLYESRNKNSWA,WASTRES,QWYHRLPLS,Rand,nd,0 of 6
KSSQSVLYESYDGNSVA,WASTRES,QLYHRLPLS,Ctrl,nd,0 of 6

Source: Li et al. 2023 (doi:10.1038/s41467-023-39022-2), MIT Lincoln Laboratory and A-Alpha Bio; data file from the FLAb repository.